The values that follow are results of earlier work, collected in patent US10736889B2, “Method of treating dyskinesia” (Rutgers, The State University of New Jersey, priority 2011, dated 2020).

Chains of the proteins cited; added tags and fusions are not shown. Lines headed by an entry give the natural chain unless they say otherwise; changes in a name come on top.
UniProt P41145: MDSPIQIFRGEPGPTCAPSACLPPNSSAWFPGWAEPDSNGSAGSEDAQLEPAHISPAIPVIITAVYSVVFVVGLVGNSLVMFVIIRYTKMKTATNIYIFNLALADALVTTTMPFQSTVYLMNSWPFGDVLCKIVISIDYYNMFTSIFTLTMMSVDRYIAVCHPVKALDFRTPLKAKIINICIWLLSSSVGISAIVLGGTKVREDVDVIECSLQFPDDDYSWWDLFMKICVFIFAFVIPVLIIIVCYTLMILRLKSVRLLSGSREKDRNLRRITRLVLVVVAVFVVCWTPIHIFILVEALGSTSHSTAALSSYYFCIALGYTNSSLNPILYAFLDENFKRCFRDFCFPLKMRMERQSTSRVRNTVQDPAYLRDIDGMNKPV
UniProt P35372, whole entry: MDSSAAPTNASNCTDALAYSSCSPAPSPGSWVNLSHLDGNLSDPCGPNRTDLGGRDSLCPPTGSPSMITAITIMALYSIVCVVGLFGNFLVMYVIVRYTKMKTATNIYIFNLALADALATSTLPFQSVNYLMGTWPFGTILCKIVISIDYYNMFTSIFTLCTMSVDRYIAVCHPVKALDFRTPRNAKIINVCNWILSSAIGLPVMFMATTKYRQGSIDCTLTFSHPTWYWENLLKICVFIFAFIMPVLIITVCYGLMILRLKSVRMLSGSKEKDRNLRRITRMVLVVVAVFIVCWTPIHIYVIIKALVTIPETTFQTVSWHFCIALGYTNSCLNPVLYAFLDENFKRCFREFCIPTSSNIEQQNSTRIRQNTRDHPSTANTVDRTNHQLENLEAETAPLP

One data set has as its target κ-opioid receptors (Homo sapiens, UniProt P41145).
The target in another data set is μ-opioid receptors (Homo sapiens, UniProt P35372).

Broadly, the Ki is the dissociation constant of the complex between target and ligand, obtained from inhibition or displacement. In the case of N-allyl-normorphine [Nalorphine], the figures for the Ki at κ-opioid receptors and on μ-opioid receptors were approximately 7.66 nM and approximately 8.13 nM, respectively.
